Reference: patent US6352723B1, “Brain-derived alkali-soluble immunoregulatory composition” (priority 1999, dated 2002)

Test system: lymphocytes
Experiment: Proliferation assay for stimulated lymphocytes (tritiated thymidine incorporation; % suppression, SI)
Type: cell-based, mice
Conditions: 10 ng/ml IL-2, n=6

IL-2: IL-2 added to the culture media at 10 ng/ml [reference compound]
SI with IL-2: 8.0±2.8
